PubChem BioAssay AID2461 (Johns Hopkins Ion Channel Center, 2010)
This is a selection; strong and weak results do not stand in their true shares. The source made the active and inactive calls.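 Rule for the calls: active = primary screen active and over 50% activation in each of two duplicate runs; inactive = the rest.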

Each compound was assayed on transient receptor potential cation channel C4 beta (TRPC4), mouse (assay: TRPC4 cation channel opening, second retest – cell-based, second round, Fluo4, HEK293 TRPC4beta/mu-opioid, 1 µM, confirmation (AID 2461)). Conditions: Fluo4 calcium fluorescence, at 1 µM.

Structure (SMILES) | outcome
CN(C)CCOC(=O)C(O)(c1ccccc1)C1CCCC1 (configuration not stated) | inactive
CCN(CC)CCCOC(=O)C(O)(c1ccccc1)c1ccccc1 | inactive
